The results in this text go back to ChEMBL document CHEMBL6109148, “Development of Squaramides as Allosteric Modulators of the CB1 Receptor: Synthesis, Computational Studies, Biological Characterization, and Effects against Cocaine-Induced Behavioral Sensitization and Reinstatement in Rats” (J Med Chem, 2025).

The chains behind the UniProt entries cited, without tags or fusion partners.
UniProt P21554, whole entry: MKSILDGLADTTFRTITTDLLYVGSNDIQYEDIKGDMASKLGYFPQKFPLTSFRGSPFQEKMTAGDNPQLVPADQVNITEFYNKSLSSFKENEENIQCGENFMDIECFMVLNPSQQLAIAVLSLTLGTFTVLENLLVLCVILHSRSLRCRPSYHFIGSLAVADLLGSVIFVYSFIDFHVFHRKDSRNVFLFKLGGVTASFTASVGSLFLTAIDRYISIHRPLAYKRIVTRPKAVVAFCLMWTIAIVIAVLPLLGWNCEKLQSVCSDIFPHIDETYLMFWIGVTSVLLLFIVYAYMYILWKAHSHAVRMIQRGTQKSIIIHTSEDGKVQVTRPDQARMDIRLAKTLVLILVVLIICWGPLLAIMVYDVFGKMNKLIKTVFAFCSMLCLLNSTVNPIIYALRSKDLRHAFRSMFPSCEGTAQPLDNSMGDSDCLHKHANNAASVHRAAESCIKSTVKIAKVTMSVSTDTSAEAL

Experiment [1] has as its target T1, Cannabinoid receptor 1 (Homo sapiens, UniProt P21554). Kind of experiment: Agonist activity at human CB1 receptor stably expressed in CHO-RD-HGA16 cells assessed as increase in intracellular calcium mobilization at 10 uM by FLIPR assay relative to CP55940. In kind it is functional, cell-based. (A change in cytosolic calcium serves as a functional read-out for many receptors and channels.)

Experiment [2] addresses T1, Cannabinoid receptor 1. In words: Negative allosteric modulation of human CB1 receptor stably expressed in CHO-RD-HGA16 cells assessed as inhibition of CP55940-induced intracellular calcium mobilization incubated for 15 mins by FLIPR assay. It counts as functional, cell-based.

Each structure is given as a SMILES string. Where only a bound is given, the exact number is not on record here.

On to `O=c1c(NCCc2ccc(Cl)cc2Cl)c(Nc2ccc(Cl)cc2)c1=O`, for which the Activity on Cannabinoid receptor 1 [1] is below 30%.

As a reminder, the IC50 is the concentration at which inhibition is half-maximal. `O=C(Nc1ccc(Cl)cc1)Nc1cccc(-c2cccc(N3CCCC3)n2)c1`: the half-inhibitory concentration (IC50) at Cannabinoid receptor 1 [2] is 29.5 nM.
